SMILES strings stand for the structures. The entries are a selection whose mix differs from that of the whole data set. Some structures show a salt or complex split into parts, the way the source records it. Activity calls are given as the source filed them. No stated cut-off is given here; in the data, active means activity change below about -75% (passing the limit was not always enough); inconclusive means no clear call, values can overlap the other calls.

The experiment is described as follows: modulation of AI-2 quorum-sensing luminescence – JMH597 strain, luminescence/OD600 ratio, primary screen (AID 2094).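 Further: luminescence divided by OD600 gain over 9 h not by final OD600 alone.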 The following applies: Vibrio harveyi JMH597 AI-2 luminescence/OD600 ratio, 9 h; at 7.5 µM; hits give low values; 0 = neutral-control median; strain lacks LuxN and CqsS sensors.
In the case of `CCN(CC)CC(O)COC(=O)C(O)(c1ccccc1)C1CCCCC1` (configuration not stated), the activity change was inactive: 36.2%.
Under `COc1ccc(OP(C)(=O)Nc2ccc(Br)cc2)cc1` (configuration not stated) stands inactive: 29.1%; under `COc1ccccc1OP(C)(=O)Nc1c(C)n(C)n(-c2ccccc2)c1=O` (configuration not stated), inactive: 39.6%; under `O=C(OCCCN1CCCC1)C(O)(c1ccccc1)C1CCCCC1` (configuration not stated), inactive: 1.77%.
The value for `CP(=O)(Oc1ccccc1)N1CCOC1=O` (configuration not stated) was inactive: -4.09%; that for `CCc1ccc(OP(C)(=O)Nc2cccnc2)cc1` (configuration not stated) was inactive: 19.4%.
`CC(C)(C)c1ccc(OP(C)(=O)O)cc1`: the activity change was inactive: 18.3%.
Under `COc1ccccc1OP(C)(=O)Nc1ccccc1Br` (configuration not stated) stands inactive: 1.55%; under `CP(=O)(Nc1ccc(Cl)cc1)Oc1ccc(F)cc1` (configuration not stated), inactive: 5.91%.
As to `CN(C)C(=O)c1c([N+](=O)[O-])cc([N+](=O)[O-])cc1[N+](=O)[O-]`, the activity change was inactive: -32.6%.
In the case of `Nc1ccc2c(ccc3cccnc32)n1.O=[N+]([O-])c1cc([N+](=O)[O-])c(O)c([N+](=O)[O-])c1`, the activity change was inactive: 20.2%.
Under `CCOC(=O)c1ccc(NP(C)(=O)Oc2ccc(Cl)cc2)cc1` (configuration not stated) stands inactive: -2.23%; under `CP(=O)(OC12CC3CC(CC(C3)C1)C2)OC12CC3CC(CC(C3)C1)C2`, inactive: 28%.
As for `Cc1cc(C)cc(OP(C)(=O)Nc2cccc(C(F)(F)F)c2)c1` (configuration not stated), the activity change was inactive: 12.8%.
In the case of `COc1ccccc1OP(C)(=O)Nc1ccc(C)c(C)c1` (configuration not stated), the activity change is inactive: 11.1%.
Under `COc1ccc(OP(C)(=O)Nc2ccccc2Br)cc1` (configuration not stated) stands inactive: -3.65%.
Take `Cc1nc2ccc3ccccc3c2o1.O=[N+]([O-])c1cc([N+](=O)[O-])c(O)c([N+](=O)[O-])c1`: the activity change was inactive: -3.26%.
As to `CP(=O)(OCCOc1ccccc1)OCCOc1ccccc1`, the activity change was inactive: 11.8%.
Under `CP(=O)(Nc1ccc(Cl)cc1Cl)Oc1ccccc1` (configuration not stated) stands inactive: 13.7%; under `COc1ccccc1OP(C)(=O)Nc1ccc(Br)cc1` (configuration not stated), inactive: -4.27%; under `COc1ccc(OP(C)(=O)Nc2ccccn2)cc1` (configuration not stated), inactive: 2.99%.
As to `CN(C)CCOC(=O)C(O)(c1ccccc1)C1CCCC1` (configuration not stated), the activity change is inactive: 25.6%.
The value for `O=[N+]([O-])c1cc([N+](=O)[O-])c(Nc2ccccn2)c([N+](=O)[O-])c1` was active: -158%; that for `Cc1c(NP(C)(=O)Oc2ccc(C(C)C)cc2)c(=O)n(-c2ccccc2)n1C` (configuration not stated) was inactive: -1.92%.
The value for `CP(=O)(Nc1ccccn1)Oc1ccccc1` (configuration not stated) was inactive: 12.1%; that for `COc1ccccc1OP(C)(=O)Nc1ccc(C)cc1C` (configuration not stated) was inactive: 18.1%.
The value for `CCc1ccc(OP(C)(=O)O)cc1` was inactive: 9.21%.
In the case of `CP(=O)(Nc1ccccc1F)Oc1ccccc1` (configuration not stated), the activity change was inactive: 0.368%.
The value for `CC(C)c1ccc(OP(C)(=O)Nc2ccc(SC(F)(F)F)cc2)cc1` (configuration not stated) was inactive: 9.13%; that for `O=C(OC1CN2CCC1CC2)c1ccc([N+](=O)[O-])cc1` (configuration not stated) was inactive: -0.491%.
The value for `O=C(OCCN1CCN(CCOCc2ccccc2)CC1)C(O)(c1ccccc1)c1ccccc1` was inactive: 17.6%; that for `COc1ccc2c(c1O)-c1c(O)c(OC)cc3c1[C@H](C2)[N+](C)(C)CC3.O=[N+]([O-])c1cc([N+](=O)[O-])c([O-])c([N+](=O)[O-])c1[O-]` was inactive: 28.2%.
The value for `CCOC(=O)c1ccc(NP(C)(=O)Oc2ccc(F)cc2)cc1` (configuration not stated) was inactive: 17.1%.
For `COc1ccc(OP(C)(=O)Nc2ccc(SC(F)(F)F)cc2)cc1` (configuration not stated), the activity change is inactive: -6.17%.
On to `CCN(CC)CCCOC(=O)C(O)(c1ccccc1)C1CCCCC1` (configuration not stated), for which the activity change is inactive: 15.2%.
For `CP(=O)(Nc1ccccc1)Oc1ccc(F)cc1` (configuration not stated), the activity change was inactive: -1.52%.
Consider `CCCCCOc1ccc(NP(C)(=O)Oc2ccc(Cl)cc2Cl)cc1` (configuration not stated), for which the activity change was inactive: 21.1%.
Under `O=[N+]([O-])c1cc([N+](=O)[O-])c(OC2CCCCC2O)c([N+](=O)[O-])c1` (configuration not stated) stands inactive: 11%.
Under `COc1ccc(OP(C)(=O)Nc2cccc(Br)c2)cc1` (configuration not stated) stands inactive: -0.422%.
Regarding `CN(C)CCOC(=O)C(O)(c1ccccc1)C1CCCCC1` (configuration not stated), the activity change was inactive: 14.2%.
Consider `COc1ccc(NP(C)(=O)Oc2ccccc2OC)cc1` (configuration not stated), for which the activity change is inactive: 1.58%.
For `O=[N+]([O-])c1ccc(OP2(=O)COCCO2)cc1` (configuration not stated), the activity change is inactive: 12.2%.
Under `Cc1cc(-c2cccc3ccccc23)c(C)cn1.O=[N+]([O-])c1cc([N+](=O)[O-])c(O)c([N+](=O)[O-])c1` stands inactive: -0.424%.
The value for `CP(=O)(Nc1ccc(SC(F)(F)F)cc1)Oc1ccc(F)cc1` (configuration not stated) was inactive: 9.32%.
In the case of `CCOP(C)(=S)SCC(=O)NC(C)(CC)C(=O)O` (configuration not stated), the activity change was inactive: -0.777%.
In the case of `CP(=O)(Nc1ccc2c(c1)OCCO2)Oc1ccccc1` (configuration not stated), the activity change is inactive: 11.8%.
The value for `Cc1ccccc1NP(C)(=O)Nc1ccccc1C` was inactive: 3.71%; that for `O=[N+]([O-])c1cc([N+](=O)[O-])c(-n2nnc3ccccc32)c([N+](=O)[O-])c1` was inactive: 7.25%; that for `O=[N+]([O-])c1cc([N+](=O)[O-])c(-c2cnn(-c3ccccc3)c2)c([N+](=O)[O-])c1` was inactive: 40.3%.
The value for `O=[N+]([O-])c1cc([N+](=O)[O-])c(Nc2nnnn2CCO)c([N+](=O)[O-])c1` was inactive: 20.6%.
Consider `CCOC(=O)C(CC)C1=NC(C)(C)Cc2ccccc21.O=[N+]([O-])c1cc([N+](=O)[O-])c(O)c([N+](=O)[O-])c1` (configuration not stated), for which the activity change is inactive: 21.1%.
Under `CN1CCCCC1COC(=O)C1(O)c2ccccc2CCc2ccccc21` (configuration not stated) stands inactive: -0.0252%.
Under `COc1ccccc1OP(C)(=O)Nc1c(C)cccc1C` (configuration not stated) stands inactive: 36.6%; under `CP(=O)(Nc1ccc(SC(F)(F)F)cc1)Oc1ccccc1` (configuration not stated), inactive: 48.3%; under `CCCOc1ccc(NP(C)(=O)Oc2ccc(Cl)cc2)cc1` (configuration not stated), inactive: 9.8%.
Under `O=C(O)c1cccc(Nc2c([N+](=O)[O-])cc([N+](=O)[O-])cc2[N+](=O)[O-])c1` stands inactive: 3.03%.
As for `CC1=NCCc2c1[nH]c1ccccc21.O=[N+]([O-])c1cc([N+](=O)[O-])c(O)c([N+](=O)[O-])c1`, the activity change was inactive: 27.2%.
The value for `COc1ccccc1OP(C)(=O)Nc1cccc(Br)c1` (configuration not stated) was inactive: -5.48%; that for `CCOC(=O)c1ccc(NP(C)(=O)Oc2cc(C)cc(C)c2)cc1` (configuration not stated) was inactive: 10.4%; that for `Cc1cc(C)cc(OP(C)(=O)Nc2ccc(C)cc2C)c1` (configuration not stated) was inactive: 13.8%.
With `Cc1ccc(C)c(NP(C)(=O)Oc2ccccc2)c1` (configuration not stated), the activity change is inactive: 9.22%.
Consider `CP(=O)(Nc1cccc(Br)c1)Oc1ccccc1` (configuration not stated), for which the activity change was inactive: 6.16%.
Consider `Cc1cc(C)cc(OP(C)(=O)Nc2ccccn2)c1` (configuration not stated), for which the activity change was inactive: 5.98%.
Under `CCN(CC)CCCOC(=O)C(O)(c1ccccc1)c1ccccc1` stands inactive: 20.1%; under `O=[N+]([O-])c1cc([N+](=O)[O-])c(Nc2cccnc2)c([N+](=O)[O-])c1`, active: -84.2%; under `O=[N+]([O-])c1ccc2c(c1)C=Nc1ccccc1O2`, inactive: 33.7%.
The value for `CC(C)(C)c1ccc(OP(C)(=O)Nc2ccc(SC(F)(F)F)cc2)cc1` (configuration not stated) was inactive: 40.5%; that for `Cc1cccc(C)c1OP(C)(N)=O` (configuration not stated) was inactive: 5.67%.
The value for `COc1ccccc1OP(C)(=O)Nc1ccc(C)cc1` (configuration not stated) was inactive: -14.4%; that for `Cc1ccc(NP(C)(=O)Oc2ccccc2)c(C)c1` (configuration not stated) was inactive: 26.8%.
For the compound `CCOC(=O)c1ccc(NP(C)(=O)Oc2ccccc2)cc1` (configuration not stated), the activity change is inactive: 28.6%.
With `Cc1cc(C)cc(OP(C)(N)=O)c1` (configuration not stated), the activity change was inactive: 15.3%.
The value for `COc1ccccc1OP(C)(=O)Nc1cc(Cl)ccc1C` (configuration not stated) was inactive: 7.61%.
Under `COc1ccc(OP(C)(=O)Nc2cccc(F)c2)cc1` (configuration not stated) stands inactive: 9.81%; under `CP(=S)(Nn1cnnc1)Oc1ccccc1` (configuration not stated), inactive: 13.9%.
In the case of `CP(=O)(Nc1ccccc1Br)Oc1ccccc1` (configuration not stated), the activity change is inactive: 13.5%.
Under `COc1ccccc1OP(C)(=O)Nc1ccccc1` (configuration not stated) stands inactive: 10%.
Under `CP(=O)(Nc1ccc(SC(F)(F)F)cc1)Oc1ccc(Cl)cc1` (configuration not stated) stands inactive: 15.2%.
The value for `Cc1cccc(C)c1OP(C)(=O)Nc1ccc(SC(F)(F)F)cc1` (configuration not stated) was inactive: -10.6%.
With `CP(=O)(Oc1ccccc1)OC(c1ccccc1)C(F)(F)F` (configuration not stated), the activity change is inactive: 0.894%.
Under `CCc1ccc(OP(C)(=O)N2CCN(c3ccc([N+](=O)[O-])cc3)CC2)cc1` (configuration not stated) stands inactive: 16.3%.
Under `CP(=O)(NC(=O)Nc1ccccc1)Oc1ccccc1` (configuration not stated) stands inactive: -1.36%; under `Cc1cc(C)cc(OP(C)(=O)Nc2ccc(SC(F)(F)F)cc2)c1` (configuration not stated), inactive: -7.24%; under `O=[N+]([O-])c1cc([N+](=O)[O-])c(O)c([N+](=O)[O-])c1.c1ccc(Oc2ccncc2)cc1`, inactive: 4.36%.
The value for `CCOC(=O)c1ccc(NP(C)(=O)Oc2ccc(OC)cc2)cc1` (configuration not stated) was inactive: 15.4%; that for `CCOP(C)(=S)SCC(=O)NC(C)C(=O)O` (configuration not stated) was inactive: 19.8%; that for `CP(=O)(Nc1ccccn1)Oc1ccc(Cl)cc1` (configuration not stated) was inactive: 20.2%.

These data come from PubChem BioAssay AID2094 (Broad Institute, 2009).
